# In US12678418B2, “Compositions and methods for the treatment of threatened respiratory failure caused by coronavirus infection and disease” (ENCYT TECHNOLOGIES, INC., priority 2020, dated 2026):
# Where two headings read alike, the source gives them in different places.
# What was measured:
# Neu1 sialidase [1] = target: T1, Neu1 sialidase (Mus musculus, UniProt O35657); assay: cell-based
# T1 construct: […]; endogenous in cells; host or cells: BMC-2 macrophage cells
# Text: Central to this process is that Neu1 and not Neu2,-3 and -4 forms a complex with TLR-2,-3 and -4 on the cell surface of naïve macrophage cells. […] Endotoxin LPS binding to TLR4 induces Neu1 with subsequent activation of NFκB and the production of nitric oxide and proinflammatory IL-6 and TNFα cytokines in primary and macrophage cell lines.
# Neu1 sialidase [2] = target: T1, Neu1 sialidase; details: read-out: IC50, inhibition of LPS-induced sialidase activity; live BMC-2 cells; Amith, Jayanth et al. 2009; cited from earlier work
smiles,measurement,setting,value
"CCOC(=O)C1=C[C@@H](OC(CC)CC)[C@H](NC(C)=O)[C@@H](N)C1.O=P(O)(O)O [OP, (3R,4R,5S)-4-acetylamino-5-amino-3-(1-ethylpropoxy)1-cyclohexene-1-carboxylic acid, ethyl ester, phosphate (1:1)]",IC50,Neu1 sialidase [1],1170 nM
same,potency relative to hydrolytic metabolite oseltamivir carboxylate in inhibiting sialidase activity,Neu1 sialidase [1]; TLR ligand treated live BMC-2 macrophage cells,1000 fold
same,IC50,Neu1 sialidase [2],1200 nM
